Measurements taken from US20220251232A1 (INSERM INSTITUT NATIONAL DE LA SANT ET DE LA RECHERCHE M …, published 2022).

Target: T1, human CD25 (Interleukin-2 receptor alpha chain) (human, UniProt P01589 22-272)
T1 sequence (looked up): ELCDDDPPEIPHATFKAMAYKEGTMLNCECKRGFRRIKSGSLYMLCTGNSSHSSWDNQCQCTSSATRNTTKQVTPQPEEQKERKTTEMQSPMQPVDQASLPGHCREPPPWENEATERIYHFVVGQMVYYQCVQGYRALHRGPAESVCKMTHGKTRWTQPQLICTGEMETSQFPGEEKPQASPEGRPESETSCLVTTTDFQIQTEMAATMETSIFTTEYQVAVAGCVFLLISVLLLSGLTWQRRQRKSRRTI
Experiment: cell-based or functional assay

IL-2 induced T-cell proliferation, Mean (control = 100): 10
B1: Basiliximab (antibody, V domains shown)
VH: QVQLQQSGTVLARPGASVKMSCKASGYSFTRYWMHWIKQRPGQGLEWIGAIYPGNSDTSYNQKFEGKAKLTAVTSASTAYMELSSLTHEDSAVYYCSRDYGYYFDFWGQGTTLTVSS
VL: QIVSTQSPAIMSASPGEKVTMTCSASSSRSYMQWYQQKPGTSPKRWIYDTSKLASGVPARFSGSGSGTSYSLTISSMEAEDAATYYCHQRSSYTFGGGTKLEIK
